Laboratory results as given in publication PMC6928688, “Identification of Novel PI3Kδ Selective Inhibitors by SVM-Based Multistage Virtual Screening and Molecular Dynamics Simulations” (International Journal of Molecular Sciences, 2019).

By UniProt entry, the sequences of proteins in these tests, tags left out. Where a name states a change or a piece, a line headed by the entry shows the natural chain unless it says otherwise.
UniProt P48736: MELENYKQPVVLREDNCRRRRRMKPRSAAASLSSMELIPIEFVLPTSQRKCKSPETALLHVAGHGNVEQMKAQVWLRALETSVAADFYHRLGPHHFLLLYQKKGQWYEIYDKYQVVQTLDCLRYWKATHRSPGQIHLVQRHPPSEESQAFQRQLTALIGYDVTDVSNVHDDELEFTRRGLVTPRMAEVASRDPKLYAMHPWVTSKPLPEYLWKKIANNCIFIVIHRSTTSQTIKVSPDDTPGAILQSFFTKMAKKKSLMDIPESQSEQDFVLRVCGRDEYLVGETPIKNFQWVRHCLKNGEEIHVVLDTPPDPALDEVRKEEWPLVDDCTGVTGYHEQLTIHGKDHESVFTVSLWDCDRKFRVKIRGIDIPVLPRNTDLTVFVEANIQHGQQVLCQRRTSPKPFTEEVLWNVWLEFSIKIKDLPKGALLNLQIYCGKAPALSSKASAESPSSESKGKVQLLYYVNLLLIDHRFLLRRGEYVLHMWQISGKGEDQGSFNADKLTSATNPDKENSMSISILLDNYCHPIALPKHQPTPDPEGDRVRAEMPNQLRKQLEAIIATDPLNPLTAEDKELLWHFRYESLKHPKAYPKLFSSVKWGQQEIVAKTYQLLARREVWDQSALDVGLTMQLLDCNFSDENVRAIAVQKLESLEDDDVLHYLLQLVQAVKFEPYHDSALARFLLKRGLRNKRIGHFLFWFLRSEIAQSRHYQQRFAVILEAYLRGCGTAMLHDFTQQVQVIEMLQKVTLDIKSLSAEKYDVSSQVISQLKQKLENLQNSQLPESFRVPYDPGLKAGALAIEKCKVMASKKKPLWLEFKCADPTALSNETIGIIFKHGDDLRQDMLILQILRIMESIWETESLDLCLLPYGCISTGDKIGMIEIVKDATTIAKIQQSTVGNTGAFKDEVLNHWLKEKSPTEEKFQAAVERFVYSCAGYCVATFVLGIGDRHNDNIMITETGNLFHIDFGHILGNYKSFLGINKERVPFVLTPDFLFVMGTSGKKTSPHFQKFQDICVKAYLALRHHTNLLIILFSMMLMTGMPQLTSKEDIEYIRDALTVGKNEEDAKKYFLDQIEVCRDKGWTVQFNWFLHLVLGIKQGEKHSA
UniProt P42338: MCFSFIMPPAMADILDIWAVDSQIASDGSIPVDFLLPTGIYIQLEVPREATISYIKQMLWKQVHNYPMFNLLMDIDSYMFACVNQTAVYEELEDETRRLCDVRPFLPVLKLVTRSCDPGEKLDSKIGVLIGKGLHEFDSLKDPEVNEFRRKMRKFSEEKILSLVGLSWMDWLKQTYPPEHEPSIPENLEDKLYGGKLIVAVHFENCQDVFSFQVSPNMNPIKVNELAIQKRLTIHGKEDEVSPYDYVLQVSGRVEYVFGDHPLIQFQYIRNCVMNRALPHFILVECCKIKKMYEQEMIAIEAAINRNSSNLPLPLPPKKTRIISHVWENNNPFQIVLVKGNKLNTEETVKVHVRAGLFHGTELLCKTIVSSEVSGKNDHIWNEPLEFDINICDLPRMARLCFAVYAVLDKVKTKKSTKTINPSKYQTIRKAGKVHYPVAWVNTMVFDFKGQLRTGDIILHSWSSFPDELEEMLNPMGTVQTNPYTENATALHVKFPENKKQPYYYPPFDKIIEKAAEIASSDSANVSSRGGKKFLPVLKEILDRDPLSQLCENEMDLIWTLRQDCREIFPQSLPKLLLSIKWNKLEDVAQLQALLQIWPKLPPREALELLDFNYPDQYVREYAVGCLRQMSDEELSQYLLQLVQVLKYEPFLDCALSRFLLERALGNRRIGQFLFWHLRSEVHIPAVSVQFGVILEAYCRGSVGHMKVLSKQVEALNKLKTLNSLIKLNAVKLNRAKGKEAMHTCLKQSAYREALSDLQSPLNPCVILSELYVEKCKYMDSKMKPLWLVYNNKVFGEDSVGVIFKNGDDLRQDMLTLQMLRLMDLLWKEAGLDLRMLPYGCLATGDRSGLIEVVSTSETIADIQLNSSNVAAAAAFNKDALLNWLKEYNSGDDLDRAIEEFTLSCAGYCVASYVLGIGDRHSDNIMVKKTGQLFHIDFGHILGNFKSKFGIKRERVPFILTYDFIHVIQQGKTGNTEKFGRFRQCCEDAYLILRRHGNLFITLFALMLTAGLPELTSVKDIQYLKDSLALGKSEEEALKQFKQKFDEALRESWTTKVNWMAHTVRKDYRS

Assays:
PI3Kγ = PI3Kγ (Homo sapiens, UniProt P48736); experiment: PI3K isoform selectivity, chemiluminescence kinase assay (γ); assay type: biochemical; conditions: isoform selectivity experiment
PI3Kβ = PI3Kβ (Homo sapiens, UniProt P42338); experiment: PI3K isoform selectivity, chemiluminescence kinase assay (β); assay type: biochemical; conditions: isoform selectivity experiment

- IC50 (PI3Kγ): 3510 nM
- IC50 (PI3Kβ): 1530 nM
Compound: O=c1cc(N2CCOCC2)oc2c(-c3ccccc3)cccc12 [LY294002, reference compound]
